Consider two substances from patent publication US20170190773A1.

The target of the assay is human FSH receptor (human) (UniProt P23945). Briefly: cell-based or functional assay.

Turning to “porcine FSH (from UniProt P01219 25-120; P01228 21-129) (ligand)”, the EC50 of GloSensor luminescence (cAMP), HEK 293 hFSHR cells, pFSH alone stood at 1.92e-09 M and the EC50 of GloSensor luminescence (cAMP), HEK 293 hFSHR cells, pFSH complexed with the CF12 antibody was found to be 3.69e-10 M.

Regarding “ovine FSH (from UniProt P01218 25-120; P01227 20-129) (ligand)”, the EC50 of GloSensor luminescence (cAMP), HEK 293 hFSHR cells, oFSH alone came out at 2.29 nM and the EC50 of GloSensor luminescence (cAMP), HEK 293 hFSHR cells, oFSH complexed with the CF12 antibody came to 198 pM.
